# Assay results published in PMC5537347, “A short D-enantiomeric antimicrobial peptide with potent immunomodulatory and antibiofilm activity against multidrug-resistant Pseudomonas aeruginosa and Acinetobacter baumannii” (Scientific Reports, 2017).
# System: colistin-resistant P. aeruginosa isolated from cystic fibrosis patients
# Description: The broth microdilution technique was utilized to assess the MIC of designed peptides according to the guidelines of the Clinical and Laboratory Standards Institute (CLSI)[37].
# [1] = colistin-resistant isolates of Table 3
substance,measurement,setting,value
Colistin [reference compound],MIC50,[1],128 µM
same,MIC90,[1],>256 µM
same,MIC,strain 1015,>256 µM
same,MIC,strain 1016,>256 µM
same,MIC,strain 1017,>256 µM
same,MIC,strain 1020,256 µM
same,MIC,strain 1109,128 µM
same,MIC,strain 1571,256 µM
same,MIC,strain 16011,128 µM

# Read-outs that look alike come from different tables or passages of the source.
